Data from US20090170945A1, “PREGABALIN SALTS” (priority 2007, published 2009).

Experiment: Hygroscopicity of solid state salts under storage at ambient and humid conditions
Type: physicochemical
Settings: storage at ambient and humid (40 C, 75% RH) conditions

Pregabalin p-toluene Sulfonate [pregabalin tosylate]
hygroscopicity: non-hygroscopic
